In patent EP1903056A2, “HLA-A1, -A2 -A3, -A24, -B7, and -B44 tumor associated antigen peptides and compositions” (priority 2002, dated 2004):
Entries after “also recorded” stand apart in the source; their conditions may differ. Where two headings read alike, the source gives them in different places.

What was measured:
[1] = system: B7 supertype family (B*0702, B*3501, B*5101, B*5301, and B*5401); test: B7 supertype cross-binding (alleles bound); set-up: species or system human; conditions: for No. B7 supertype alleles crossbound (200): Table 21, TAA-derived B7 supertype candidates
[2] = system: JY cell line (B7+) peptide-loaded target cells; test: Primary CTL induction cultures, HLA-B7 peptides: peptide-loaded targets; assay type: cell-based, human
B*3501 = B*3501 (Homo sapiens, UniProt P01889, A329T/A93T/A95T/C349S/D201E/D98Y/E176V/E187L/E204Q/E69T/I218V/K202T/L119I/Q94N/R155S/R180L/S121R/S35A/S48A/T118I/V127L/V306I/V36M/Y140S/Y91F); test: Class I peptide-binding assay, B*3501
B*5101 = B*5101 (Homo sapiens, UniProt P01889, A329T/A93T/A95T/C349S/D138N/D201E/D98Y/E187L/E204Q/E69T/G107R/I218V/K202T/L105A/L119W/N104I/Q94N/R106L/R155S/R180L/S101N/S121T/S35A/S48A/V306I/V36M/Y195H/Y91F); test: Class I peptide-binding assay, B*5101
B*5301 = B*5301 (Homo sapiens, UniProt P01889, A329T/A93T/A95T/C349S/D201E/D98Y/E176V/E187L/E204Q/E69T/G107R/I218V/K202T/L105A/L119I/N104I/Q94N/R106L/R155S/R180L/S101N/S121R/S35A/S48A/T118I/V127L/V306I/V36M/Y140S/Y91F); test: Class I peptide-binding assay, B*5301
B*5401 = B*5401 (Homo sapiens, UniProt P01889, A329T/C349S/D138N/D201E/E176V/E187T/E204Q/E69G/I76V/K202T/L119W/R155S/R180L/S121T/S35A/S48A/V127L/V306I/V36M/Y140L); test: Class I peptide-binding assay, B*5401
HLA-B*0702 = HLA-B*0702 (Homo sapiens, UniProt P01889); test: Class I peptide-binding assay, B*0702
[3] = system: A3 supertype family (A*0301, A*1101, A*3101, A*3301, and A*6801); test: A3 supertype cross-binding (alleles bound); set-up: species or system human
[4] = system: Wildtype-pulsed EHM target cell line; test: Primary CTL induction cultures, HLA-A3 peptides: peptide-pulsed targets (51Cr release or in situ IFNγ ELISA); assay type: cell-based, human; conditions: result in words
[5] = system: Tumor target cell line (SW403, SW480, 624mel, 938mel, SW403 transfected with p53); test: Primary CTL induction cultures, HLA-A3 peptides: tumor target recognition; assay type: cell-based, human; conditions: result in words
[6] = system: peptide-pulsed targets and HLA matched tumor targets; conditions: result in words; cited from earlier work
HLA-A*2402 = HLA-A*2402 (Homo sapiens, UniProt P04439, D101N/D140Y/D185E/E176V/E190D/F33S/G103R/G107R/I119L/I121M/I306V/K335N/L105A/L180Q/L300P/N151K/N90K/Q86E/Q94H/R106L/R138H/R89G/T104I/T345S/V100E/W191G/Y123F); test: Class I peptide-binding assay, A*2402; conditions: binding affinity (IC50) to HLA-A*2402, running text
[7] = system: peptide-pulsed target cells; test: In vitro primary CTL induction, A2 peptides: recognition of peptide-pulsed targets (chromium release or IFNγ ELISA); assay type: cell-based, human; conditions: Table 6, number of donors yielding a positive response/ total tested
HLA-A*0301 = HLA-A*0301 (Homo sapiens, UniProt P04439); test: Class I peptide-binding assay (inhibition of 125I-radiolabeled probe peptide), A*0301; conditions: Table 16b
A*1101 = A*1101 (Homo sapiens, UniProt P04439, A114D/D185E/E176A/F33Y/L180Q/S129P/T187R); test: Class I peptide-binding assay, A*1101; conditions: Table 16b
A*3101 = A*3101 (Homo sapiens, UniProt P04439, A270S/D185E/E176V/E277Q/F33T/G231S/G80R/H175R/I121M/I218V/I322F/K168Q/L300P/L318F/M331R/P217A/Q94H/R138Q/T323A/T345S/T97I/V358M); test: Class I peptide-binding assay, A*3101; conditions: Table 16b; read-out: HLA Binding (IC50 nM) A*3101
A*3301 = A*3301 (Homo sapiens, UniProt P04439, A270S/D185E/E176V/E277Q/E87N/F33T/G231S/H175R/I121M/I218V/I322F/K168Q/K210R/L300P/L318F/M331R/P217A/Q86R/Q94H/R138Q/T323A/T345S/T97I/V358M/Y195H); test: Class I peptide-binding assay, A*3301; conditions: Table 16b; read-out: HLA Binding (IC50 nM) A*3301
HLA-A*0101 = HLA-A*0101 (Homo sapiens, UniProt P04439, A114D/A174V/A182V/D101N/D185E/E176A/E190D/L180R/Q94H/R68K/S129P/T187R/V100A/V91M/W191G); test: Class I peptide-binding assay, A*0101; conditions: binding affinity (IC50) to HLA-A*0101
[8] = read-out: B*[…], Table 21, TAA-derived B7 supertype candidates
[9] = Table 21, TAA-derived B7 supertype candidates
[10] = Table 17d, p53-derived B7 supertype crossbinders

CC[C@H](C)[C@H](N)C(=O)N1CCC[C@H]1C(=O)N[C@@H](Cc1c[nH]c2ccccc12)C(=O)N[C@@H](CCC(N)=O)C(=O)N[C@@H](CCCNC(=N)N)C(=O)N[C@@H](CC(C)C)C(=O)N[C@@H](CC(C)C)C(=O)N[C@@H](CC(C)C)C(=O)N[C@H](C(=O)N[C@H](C(=O)O)[C@@H](C)CC)[C@@H](C)O [CEA.13I10]
Number of B7 alleles crossbound ([1]; Table 17a): 4
Immunogenicity Wildtype ([2]; Table 17a, positive/total tested): 0/1

CC(C)C[C@H](NC(=O)[C@H](Cc1c[nH]cn1)NC(=O)[C@H](CCC(N)=O)NC(=O)[C@@H]1CCCN1C(=O)[C@@H](N)CC(C)C)C(=O)N[C@@H](Cc1ccccc1)C(=O)NCC(=O)N[C@@H](Cc1ccc(O)cc1)C(=O)N[C@@H](CO)C(=O)N[C@@H](Cc1c[nH]c2ccccc12)C(=O)O [CEA.58]
IC50 (B*3501; Table 17a): 9000 nM
IC50 (B*5101; Table 17a): 10000 nM
IC50 (B*5301; Table 17a): 22 nM
IC50 (B*5401; Table 17a): 4350 nM
Number of B7 alleles crossbound ([1]; Table 17a): 1
IC50 (HLA-B*0702): 10000 nM

CC(C)C[C@H](NC(=O)[C@@H](N)Cc1c[nH]cn1)C(=O)N[C@@H](Cc1ccccc1)C(=O)NCC(=O)N[C@@H](Cc1ccc(O)cc1)C(=O)N[C@@H](CO)C(=O)N[C@@H](Cc1c[nH]c2ccccc12)C(=O)N[C@@H](Cc1ccc(O)cc1)C(=O)N[C@@H](CCCCN)C(=O)O [CEA.61]
Number of A3 alleles crossbound ([3]; Table 16a): 5
number of A3 superfamily alleles bound ([3]; of 5 alleles, affinity ≤500nM): five
IC50 ([3]; read-out: binding affinity to the alleles of the A3 superfamily stated as bound): ≤ 50 nM
in vitro immunogenicity: CTL induction, recognition of peptide-pulsed targets [4]: immunogenic
recognition of tumor / endogenous targets by induced CTLs [5]: generated by natural processing; also recorded: induce tumor-reactive CTLs; also recorded: recognize endogenous targets

CC(C)[C@H](NC(=O)[C@H](Cc1ccccc1)NC(=O)[C@H](Cc1c[nH]c2ccccc12)NC(=O)[C@H](CO)NC(=O)[C@H](Cc1ccc(O)cc1)NC(=O)[C@@H](N)CCC(N)=O)C(=O)N[C@@H](CC(N)=O)C(=O)NCC(=O)N[C@H](C(=O)N[C@@H](Cc1ccccc1)C(=O)O)[C@@H](C)O [CEA.268]
CTL induction / antigenicity / tumor target recognition reported in the literature [6]: induced CTLs in normal donors that recognized peptide-pulsed targets and HLA matched tumor targets
IC50 (HLA-A*2402): ≤ 100 nM

CC(C)C[C@H](NC(=O)[C@H](CC(N)=O)NC(=O)[C@H](CO)NC(=O)[C@@H](NC(=O)[C@H](Cc1ccccc1)NC(=O)[C@H](CS)NC(=O)[C@H](C)NC(=O)[C@H](Cc1ccc(O)cc1)NC(=O)[C@@H](N)[C@@H](C)O)C(C)C)C(=O)O [CEA.652]
CTL induction / antigenicity / tumor target recognition reported in the literature [6]: the same results
IC50 (HLA-A*2402): ≤ 100 nM

CC[C@H](C)[C@H](NC(=O)[C@@H](N)CCCCN)C(=O)N[C@@H](Cc1ccccc1)C(=O)NCC(=O)N[C@@H](CO)C(=O)N[C@@H](CC(C)C)C(=O)N[C@@H](C)C(=O)N[C@@H](Cc1ccccc1)C(=O)N[C@@H](CC(C)C)C(=O)O [Her2/neu.369]
CTL Sequence ([7]; targets pulsed with the peptide itself): 10/11
CTL Wild-type Sequence ([7]; wild-type sequence): 10/11

CC[C@H](C)[C@H](NC(=O)[C@@H](N)CCCCN)C(=O)N[C@@H](CCCNC(=N)N)C(=O)N[C@@H](CCCCN)C(=O)N[C@@H](Cc1ccc(O)cc1)C(=O)N[C@H](C(=O)N[C@@H](CCSC)C(=O)N[C@@H](CCCNC(=N)N)C(=O)N[C@@H](CCCCN)C(=O)O)[C@@H](C)O [Her2/neu.681.K9]
IC50 (HLA-A*0301): 177 nM
IC50 (A*1101): 1090 nM
IC50 (A*3101): 6430 nM
IC50 (A*3301): 10000 nM
Number of A3 alleles crossbound ([3]; Table 16b): 1

CC(C)C[C@H](NC(=O)[C@@H](N)C(C)C)C(=O)N[C@@H](CCCNC(=N)N)C(=O)N[C@@H](CCC(=O)O)C(=O)N[C@@H](CC(N)=O)C(=O)N[C@H](C(=O)N[C@@H](CO)C(=O)N1CCC[C@H]1C(=O)N[C@@H](CCCCN)C(=O)O)[C@@H](C)O [Her2/neu.754]
in vitro immunogenicity: CTL induction, recognition of peptide-pulsed targets [4]: immunogenic
recognition of tumor / endogenous targets by induced CTLs [5]: induce tumor-reactive CTLs

CC(C)C[C@H](NC(=O)[C@@H]1CCCN1C(=O)CNC(=O)[C@H](CCC(=O)O)NC(=O)[C@H](CCCNC(=N)N)NC(=O)[C@@H]1CCCN1C(=O)[C@H](CO)NC(=O)[C@@H]1CCCN1C(=O)[C@@H]1CCCN1)C(=O)N1CCC[C@H]1C(=O)N[C@@H](C)C(=O)O [Her2/neu.1149]
IC50 (B*3501; Table 17b): 1000 nM
IC50 (B*5101; Table 17b): 1000 nM
IC50 (B*5301; Table 17b): 1000 nM
IC50 (B*5401; Table 17b): 83 nM
Number of B7 alleles crossbound ([1]; Table 17b): 2
IC50 (HLA-B*0702): 12 nM

CC[C@H](C)[C@H](NC(=O)[C@@H]1CCCN1C(=O)[C@H](CC(=O)O)NC(=O)[C@@H](NC(=O)[C@@H](N)CCC(=O)O)C(C)C)C(=O)NCC(=O)N[C@@H](Cc1c[nH]cn1)C(=O)N[C@@H](CC(C)C)C(=O)N[C@@H](Cc1ccc(O)cc1)C(=O)O [MAGE3.168]
CTL induction / antigenicity / tumor target recognition reported in the literature [6]: induction of MAGE3.168-specific CTLs as well as endogenous recognition of tumor targets
IC50 (HLA-A*0101): ≤ 100 nM

CC[C@H](C)[C@H](NC(=O)[C@@H](NC(=O)[C@@H](NC(=O)[C@H](CC(C)C)NC(=O)[C@H](CC(C)C)NC(=O)CNC(=O)[C@H](C)NC(=O)[C@H](CCCCN)NC(=O)[C@@H]1CCCN1C(=O)[C@@H](N)CCSC)[C@@H](C)CC)[C@@H](C)CC)C(=O)O [compound 153]
IC50 (B*3501; [8]): 2400 nM
IC50 (B*5101; [9]): 62 nM
IC50 (B*5301; [8]): 176 nM
IC50 (B*5401; [9]): 102 nM
No. B7 supertype alleles crossbound (200) [1]: 3
IC50 (HLA-B*0702; [8]): 324 nM

C[C@H](N)C(=O)N1CCC[C@H]1C(=O)N[C@@H](C)C(=O)N[C@@H](C)C(=O)N1CCC[C@H]1C(=O)N[C@H](C(=O)N1CCC[C@H]1C(=O)N[C@@H](C)C(=O)N[C@@H](C)C(=O)N1CCC[C@H]1C(=O)N[C@@H](C)C(=O)O)[C@@H](C)O [compound 155]
IC50 (B*5101; [9]): 10000 nM
IC50 (B*5101; [10]): 10000 nM
No. B7 supertype alleles crossbound (200) [1]: 3
Number of B7 alleles crossbound [1, 10]: 3
Immunogenicity Peptide [2, 9]: 0/1
Immunogenicity Peptide [2, 10]: 0/1
